Drawing on article PMC3713777 (Bioorganic & medicinal chemistry, 2010), this text covers DAT/SERT for 1 compound.

The test system of this experiment is SERT. The experiment in a line: SERT binding, inhibition of [3H]paroxetine. The note with it: ratio of Ki values taken from reference 21.

With `CCOC(=O)C1(c2ccccc2)CCN(C)CC1.Cl` [Compound 1, meperidine, reference compound], the DAT/SERT is given as 43.
